The values that follow come from ChEMBL document CHEMBL5726138, “Tricyclic heterocycles as BET protein inhibitors” (2017).

The experiment addresses Bromodomain-containing protein 4 (Homo sapiens, UniProt O60885). The experiment in a line: Inhibitors were first serially diluted in DMSO and added to the plate wells before the addition of other reaction components. […] After plate sealing, the plate was incubated in the dark at room temperature for 75 min. before reading on a PHERAstar FS plate reader (BMG Labtech).

What is called IC50 is the concentration needed to halve the response being measured. For `Cc1noc(C)c1-c1ccc2nc(N3CC[C@@H](O)C3)n3c2c1OC[C@@H]3c1cccnc1`, the IC50 result was “in the range around 550 nM”.
